According to PubChem BioAssay AID1347071 (National Center for Advancing Translational Sciences (NCATS), 2019):
The list shows a part of the results, in another mix than the full data. The source made the active and inactive calls. Calls follow the shape of the dose curve; as a rule, active = well fitted activation curve with a large enough effect; inconclusive = small, poorly fitted or top-dose-only effect; inactive = no such curve, though single readings can be large or run the other way.

Experiment: qHTS for compounds that reverse cellular toxicity of Amyloid beta (A-beta) peptide in yeast: Primary Screen; also: nearly all actives have a fitted effect of over 55% in size
Settings: yeast expressing A-beta42, growth rescue, OD600, 48 h, 0% DMSO, 100% iron-clioquinol control; at 46.1 µM (top of the series)
Text: The A-beta peptide is produced by the processing of the amyloid precursor protein (APP) by two proteases, beta and gamma secretases. […] A-beta42 is regarded as the most amyloidogenic form due to its hydrophobicity; however, precisely how A-beta42 induces neurotoxicity is unclear. To understand further this biology and its potential therapeutic implications for human neurodegenerative disease, a quantitative high-throughput screen for compounds that reverse the cellular toxicity of the A-beta peptide was developed. A yeast based screen was used because it recapitulates the salient feature of protein mis-folding disorder accurately. This cell-based phenotypic screen provides a significant, unbiased advantage by letting the compounds and models inform us which proteins or pathways are most relevant. The ideal chemical candidates would therefore have activity in both our primary yeast and secondary neuronal toxicity assays, as well as in mouse models. They will be valuable tools for dissecting diverse protein homeostasis pathologies and could potentially become the focus for future pre-clinical development. For this luminescence assay, inhibition of A-beta rescues the toxic effect in the yeast cell, resulting in increase of signals and the desired phenotype of "Activator". This screen is run against the Molecular Libraries Small Molecule Repository (MLSMR) and the NCGC Sytravon Library Collection.
NIH Chemical Genomics Center [NCGC]
NIH Molecular Libraries Probe Centers Network [MLPCN]
Assay Submitter (PI): Susan Lindquist, Whitehead Institute, Massachusetts Institute of Technology
[1] Vassar R,et al (1999). Beta-secretase cleavage of Alzheimer's amyloid precursor protein by the transmembrane aspartic protease BACE. Science. 286: 735-741.
[2] Yan R, et al (1999). Membrane-anchored aspartyl protease with Alzheimer's disease beta-secretase activity. Nature. 402: 533-536.
Two and a half microliter / well of yeast growth medium were dispensed in a 1536 assay plate. Compounds were pinned using the Kalypsys robotic system followed by addition of 2.5 uL / well yeast solution. The assay plates were incubated at 30 C. After 48 hr, the absorbance signal at 600 nm was obtained using the PerkinElmer ViewLux plate reader to assess yeast growth. The data was normalized to the positive control of an equimolar mixture of ferric chloride (FeCl3) and clioquinol and to the negative control DMSO.

| SMILES | growth rescue |
| --- | --- |
| CCOC(=O)C(CC)C1=NC(C)(C)Cc2ccccc21.O=[N+]([O-])c1cc([N+](=O)[O-])c(O)c([N+](=O)[O-])c1 (centres undefined) | inactive: 5.98% |
| CC(C)(C)OC(=O)N1CCC(N(C(=O)c2ccccc2)c2ccc(Cl)cc2)CC1 | inactive: -2.64% |
| O=C(NCC1(N2CCOCC2)CCCCC1)c1ccc([N+](=O)[O-])cc1 | inactive: -8.15% |
| O=C(NCC1(N2CCOCC2)CCCCC1)c1ccccc1[N+](=O)[O-] | inactive: -21.3% |
| N#Cc1ccc(C(=O)NCC2(N3CCCCC3)CCCCC2)cc1 | inactive: -14.9% |
| CC(C)(C)n1nnnc1C(c1cccc2ccccc12)N1CCC(n2c(=O)[nH]c3ccccc32)CC1 (centres undefined) | inactive: 5.37% |
| O=C(NCC1(N2CCOCC2)CCCCC1)c1ccccc1 | inactive: -22.1% |
| Cc1cc(N(CCCl)CCCl)ccc1C=O | inactive: -17% |
| CCCN1CCC(Nc2cc(OC)cc(OC)c2)CC1 | inactive: 9.74% |
| O=c1[nH]c2ccccc2n1C1CCN(C(c2ccccc2)c2nnnn2C2CCCC2)CC1 (centres undefined) | inactive: -7.95% |
| c1ccc(CN2CCC(Nc3ccccc3)CC2)cc1 | inactive: 12.8% |
| CN(C)C1(CNC(=O)c2cccc(C#N)c2)CCCCC1 | inactive: 0.125% |
| O=c1[nH]c2ccccc2n1C1CCN(C(c2ccnc3ccccc23)c2nnnn2C2CCCC2)CC1 (centres undefined) | inactive: 18% |
| COc1ccc(C(=O)NCC2(N3CCOCC3)CCCCC2)cc1OC | inactive: -8.77% |
| O=c1[nH]c2ccccc2n1C1CCN(C(c2cccs2)c2nnnn2C2CCCCC2)CC1 (centres undefined) | inactive: 13.5% |
| O=C(NCC1(N2CCOCC2)CCCCC1)c1cc(Br)ccc1Cl | inactive: 0.671% |
| COc1cc(C(=O)NCC2(N3CCOCC3)CCCCC2)cc(OC)c1C | inactive: -10.2% |
| CCCCn1nnnc1C(c1ccccc1)N1CCC(n2c(=O)[nH]c3ccccc32)CC1 (centres undefined) | inactive: -4.56% |
| CCCCn1nnnc1C(c1cccc(OC)c1OC)N1CCC(n2c(=O)[nH]c3ccccc32)CC1 (centres undefined) | inactive: -15.1% |
| O=c1[nH]c2ccccc2n1C1CCN(C(c2cccs2)c2nnnn2C2CCCC2)CC1 (centres undefined) | inactive: 8.75% |

| SMILES | growth rescue |
| --- | --- |
| O=C(O)c1cccc(Nc2c([N+](=O)[O-])cc([N+](=O)[O-])cc2[N+](=O)[O-])c1 | inactive: 10.5% |
| CCc1cc(C(=O)NCC2(N3CCCCC3)CCCCC2)sc1C | inactive: 7.98% |
| O=C(OC1CN2CCC1CC2)C1c2ccccc2C=Cc2ccccc21 (centres undefined) | inactive: 0% |
| CCOC(=O)N1CCC(Nc2ccc(C)cc2)CC1 | inactive: 13.5% |
| COc1cccc(C(c2nnnn2C(C)(C)C)N2CCC(n3c(=O)[nH]c4ccccc43)CC2)c1OC (centres undefined) | inactive: 0.0267% |
| O=c1[nH]c2ccccc2n1C1CCN(C(c2cc3ccccc3o2)c2nnnn2C2CCCC2)CC1 (centres undefined) | inactive: 6.82% |
| CCCOc1ccc(C(=O)NCC2(N(C)C)CCCCC2)cc1 | inactive: 17.8% |
| NN(c1ccccc1)C1CCN(CCc2ccccc2)CC1 | inactive: -20.6% |
| O=C(O)C1(Nc2ccccc2)CCN(Cc2ccccc2)CC1 | inactive: 4.75% |
| CC(C)(C)OC(=O)N1CCC(Nc2ccccc2)CC1 | inactive: -16.8% |
| CN1CCC(Nc2ccc(F)c(Cl)c2)CC1 | inactive: -19.7% |
| CCOc1ncccc1C(=O)NCC1(N2CCOCC2)CCCCC1 | inactive: -1.54% |
| CN1CCC(Nc2ccc(Cl)cc2)CC1 | inactive: 0.0871% |
| CCC(CO)(C(=O)OC1CN2CCC1CC2)c1ccccc1 (centres undefined) | inactive: 6.88% |
| COc1cccc(C(=O)N(c2cc(C)cc(C)c2)C2CCN(C(=O)OC(C)(C)C)CC2)c1 | inactive: 5.11% |
| COc1cc(OC)cc(C(=O)NCC2(N3CCOCC3)CCCCC2)c1 | inactive: 1.92% |
| COc1cccc(C(c2nnnn2C2CCCC2)N2CCC(n3c(=O)[nH]c4ccccc43)CC2)c1OC (centres undefined) | inactive: 3.96% |
| COc1cc(C(=O)NCC2(N3CCOCC3)CCCCC2)cc(OC)c1OC | inactive: -8.86% |
| Cc1ccc(NC2(C#N)CCN(Cc3ccccc3)CC2)cc1 | inactive: -14.1% |
| Fc1ccccc1NC1CCN(Cc2ccccc2)CC1 | inactive: -0.059% |

| SMILES | growth rescue |
| --- | --- |
| Cc1ccc(Nc2c([N+](=O)[O-])cc([N+](=O)[O-])cc2[N+](=O)[O-])cc1 | inactive: -40.6% |
| Cc1ccc(C(=O)NCC2(N3CCCCC3)CCCCC2)o1 | inactive: 1.91% |
| COc1cc(OC)cc(C(=O)NCC2(N3CCCCC3)CCCCC2)c1 | inactive: -1.25% |
| O=c1[nH]c2ccccc2n1C1CCN(C(c2ccnc3ccccc23)c2nnnn2C2CCCCC2)CC1 (centres undefined) | inactive: 7.92% |
| CCC(c1nnnn1C1CCCCC1)N1CCC(n2c(=O)[nH]c3ccccc32)CC1 (centres undefined) | inactive: 2.86% |
| CN(C)C1(CNC(=O)c2ccc(C(C)(C)C)cc2)CCCCC1 | inactive: -13% |
| COc1cccc(C(c2nnnn2C2CCCCC2)N2CCC(n3c(=O)[nH]c4ccccc43)CC2)c1OC (centres undefined) | inactive: 4.03% |
| CC(=O)N(c1ccccc1)C1CCNCC1 | inactive: -2.96% |
| CN(C)c1ccc(C(=O)NCC2(N3CCCCC3)CCCCC2)cc1 | inactive: -17.6% |
| Cn1c(=O)[nH]cc(N(CCCl)CCCl)c1=O | inactive: 1.38% |
| O=C(NCC1(N2CCCCC2)CCCCC1)c1ccco1 | inactive: -1.51% |
| CC(C)(C)c1ccc(C(=O)NCC2(N3CCOCC3)CCCCC2)cc1 | inactive: 8.03% |
| Cc1ccccc1C(=O)NCC1(N(C)C)CCCCC1 | inactive: -5.98% |
| CCN1CCC(Nc2cccc(F)c2)CC1 | inactive: 11.9% |
| COc1ccc(C(c2nnnn2C2CCCCC2)N2CCC(n3c(=O)[nH]c4ccccc43)CC2)cc1 (centres undefined) | inactive: 2.38% |
| CC(C)(C)n1nnnc1C(c1ccnc2ccccc12)N1CCC(n2c(=O)[nH]c3ccccc32)CC1 (centres undefined) | inactive: -20.6% |
| Cc1ccccc1NC1(C#N)CCN(Cc2ccccc2)CC1 | inactive: -6.23% |
| CCOC(=O)N1CCC(Nc2ccc(F)cc2)CC1 | inactive: 14.1% |
| COc1ccc(NC2CCN(CCc3ccccc3)CC2)c(OC)c1 | inactive: 8.83% |
